Cyclic peptide permeability, from CycPeptMPDB

Values of Townsend et al. 2020, doi:10.26434/chemrxiv.13335941.v1, as listed in CycPeptMPDB.

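The data file gives no further conditions (lipid, pH, time, direction or concentration), and values from different papers need not be comparable. The list need not hold all peptides of the study. Entries at the database's floor value (log10 P of -10) are not listed.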

PAMPA is the parallel artificial membrane permeability assay, which has no cells and reads passive diffusion.
Values are log10 P with P in cm/s, so -5 is more permeable than -7.

| compound | PAMPA (log10 cm/s) |
|---|---|
| CCCN1CC(=O)N[C@H](CC(C)C)C(=O)N[C@@H](Cc2ccccc2)CC(=O)N2CCC[C@H]2C(=O)N(C)[C@@H](CC(C)C)C(=O)N[C@@H](Cc2ccccc2)C(=O)N2CCC[C@H]2C1=O | -5.50 |
| CC(C)C[C@@H]1NC(=O)[C@@H](C)N(C)C(=O)[C@H](Cc2ccccc2)NC(=O)[C@@H](CC(C)C)NC(=O)[C@H]2CCCN2C(=O)[C@@H](CC(C)C)N(C)C1=O | -5.25 |
| CC(C)C[C@@H]1NC(=O)C[C@H](Cc2ccccc2)NC(=O)[C@@H]2CCCN2C(=O)[C@H](Cc2ccccc2)NC(=O)[C@@H](CC(C)C)N(C)C(=O)[C@H]2CCCN2C(=O)[C@@H](CC(C)C)N(C)C1=O | -5.47 |
| CC(C)C[C@@H]1C(=O)N[C@@H](Cc2ccccc2)C(=O)N2CCC[C@H]2C(=O)N[C@H](C)C(=O)N(C)[C@@H](CC(C)C)C(=O)N(C)[C@@H](CC(C)C)C(=O)N2CCC[C@@H]2C(=O)N1C | -5.55 |
| CC(C)C[C@@H]1NC(=O)[C@H]2CCCN2C(=O)[C@@H](CC(C)C)N(C)C(=O)[C@@H](CC(C)C)NC(=O)[C@H](C)N(C)C(=O)[C@H](Cc2ccccc2)NC1=O | -5.71 |
| CCCN1CC(=O)N[C@H](CC(C)C)C(=O)N[C@@H](CC(C)C)C(=O)N2CCC[C@H]2C(=O)N[C@@H](CC(C)C)C(=O)N[C@@H](Cc2ccccc2)C(=O)N2CCC[C@@H]2C1=O | -6.05 |
| CC(C)C[C@H]1NC(=O)[C@H](C)N(C)C(=O)[C@H](Cc2ccccc2)NC(=O)CN(Cc2ccccc2)C(=O)[C@@H]2CCCN2C(=O)C[C@H](Cc2ccccc2)NC1=O | -6.17 |
| CC(C)C[C@@H]1C(=O)N(Cc2ccccc2)CC(=O)N2CCC[C@@H]2C(=O)N(C)[C@@H](CC(C)C)C(=O)N[C@@H](Cc2ccccc2)C(=O)N[C@@H](C)C(=O)N1C | -5.08 |
| CCCN1CC(=O)N(C)[C@H](CC(C)C)C(=O)N(C)[C@H](CC(C)C)C(=O)N2CCC[C@@H]2C(=O)N(C)[C@H](CC(C)C)C(=O)N[C@@H](Cc2ccccc2)C1=O | -5.28 |
| CC(C)C[C@@H]1NC(=O)[C@@H](CC(C)C)NC(=O)[C@H](C)N(C)C(=O)[C@H](Cc2ccccc2)NC(=O)CN(Cc2ccccc2)C(=O)[C@H]2CCCN2C1=O | -5.79 |
| CC(C)C[C@@H]1NC(=O)[C@@H](C)N(C)C(=O)[C@@H]2CCCN2C(=O)[C@H](Cc2ccccc2)NC(=O)CN(Cc2ccccc2)C(=O)[C@H]2CCCN2C(=O)C[C@H](Cc2ccccc2)NC1=O | -5.81 |
| CC(C)C[C@@H]1C(=O)N[C@@H](Cc2ccccc2)CC(=O)N2CCC[C@@H]2C(=O)N[C@H](CC(C)C)C(=O)N[C@@H](Cc2ccccc2)C(=O)N[C@@H](C)C(=O)N1C | -6.27 |
| CCCN1CC(=O)N(C)[C@H](CC(C)C)C(=O)N[C@@H](CC(C)C)C(=O)N2CCC[C@@H]2C(=O)N(Cc2ccccc2)CC(=O)N[C@@H](Cc2ccccc2)C(=O)N2CCC[C@H]2C1=O | -5.29 |
| CC(C)C[C@@H]1NC(=O)[C@@H]2CCCN2C(=O)C[C@H](Cc2ccccc2)NC(=O)[C@@H](CC(C)C)NC(=O)[C@@H](C)N(C)C(=O)[C@H](Cc2ccccc2)NC1=O | -5.89 |
| CC(C)C[C@@H]1NC(=O)[C@@H](CC(C)C)N(C)C(=O)[C@H](C)NC(=O)[C@H]2CCCN2C(=O)[C@H](Cc2ccccc2)NC(=O)CN(Cc2ccccc2)C(=O)[C@H]2CCCN2C1=O | -5.51 |
| CC(C)C[C@@H]1NC(=O)[C@H](CC(C)C)N(C)C(=O)[C@H](C)NC(=O)[C@H](Cc2ccccc2)NC(=O)[C@H](CC(C)C)N(C)C(=O)[C@@H]2CCCN2C1=O | -5.28 |
| CC(C)C[C@@H]1NC(=O)C[C@H](Cc2ccccc2)NC(=O)[C@H](Cc2ccccc2)NC(=O)[C@@H](CC(C)C)NC(=O)[C@H]2CCCN2C(=O)C[C@H](Cc2ccccc2)NC1=O | -4.97 |
| CC(C)C[C@H]1NC(=O)[C@H]2CCCN2C(=O)C[C@H](Cc2ccccc2)NC(=O)[C@H](CC(C)C)N(C)C(=O)[C@H](C)N(C)C(=O)[C@H](Cc2ccccc2)NC1=O | -5.60 |
| CC(C)C[C@@H]1C(=O)N[C@@H](Cc2ccccc2)CC(=O)N2CCC[C@H]2C(=O)N[C@H](CC(C)C)C(=O)N[C@@H](Cc2ccccc2)C(=O)N2CCC[C@H]2C(=O)N[C@@H](Cc2ccccc2)CC(=O)N1C | -5.68 |

The 2 highest values of PAMPA among the entries above:

| compound | PAMPA (log10 cm/s) |
|---|---|
| CC(C)C[C@@H]1NC(=O)C[C@H](Cc2ccccc2)NC(=O)[C@H](Cc2ccccc2)NC(=O)[C@@H](CC(C)C)NC(=O)[C@H]2CCCN2C(=O)C[C@H](Cc2ccccc2)NC1=O | -4.97 |
| CC(C)C[C@@H]1C(=O)N(Cc2ccccc2)CC(=O)N2CCC[C@@H]2C(=O)N(C)[C@@H](CC(C)C)C(=O)N[C@@H](Cc2ccccc2)C(=O)N[C@@H](C)C(=O)N1C | -5.08 |